Yeast UUG start-1: modulators of start codon recognition fidelity in yeast; AID 602363; activity score, % at 18.7 µM; S. cerevisiae UUG-firefly luciferase reporter, luminescence/redox ratio; 0.13% of 350,000 active;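 active = replicate mean at a twofold rise or more, about +100% in these data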;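 note: firefly luciferase made from a UUG start codon reports start codon fidelity; reporter light over untreated wells divided by growth signal over untreated wells; some hits fall short of that in this replicate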
PDI inh: PDI (human) enzyme inhibition. PDI insulin aggregation turbidity, A650, 90 min. 350,000 tested, 0.052% active. P07237. inhibition, % at 10 µM. AID 588391;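 active = mean inhibition across replicates of 30% or more, whatever share of single replicates reach that level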
PglD inh: inhibitors of Campylobacter jejuni PglD acetyltransferase; AID 602405; inhibition, % at 12.5 µM; purified PglD enzyme, DTNB colorimetric CoA detection; 360,000 tested, 0.098% active; in the data active = inhibition above about 16%, passing the limit was not always enough
ERp5 inh: blocks human ERp5 reductase activity on insulin; Q15084; ERp5 insulin aggregation, absorbance 650 nm, 90 min; inhibition, % at 9.99 µM; 350,000 tested, 0.05% active; AID 651711;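 active = mean replicate inhibition above about 25%, with every replicate also reaching it, limit read from the data, passing the limit was not always enough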
ARNT TACC3 PPI: disrupts binding between human ARNT and TACC3 | Q9Y6A5 | AlphaScreen His-ARNT PAS-B/GST-TACC3 binding, luminescence; TACC3 fragment carries E629A point mutation | inhibition, % at 9.99 µM | 390,000 tested, 0.66% active | AID 623870;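 active = mean inhibition of replicates at least 50% and at least half of replicates each reaching 50%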;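 also: 0% = complete ARNT plus TACC3 wells and 100% = ARNT alone without TACC3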
FGF22 binding: shifts melting point of recombinant human FGF22. activity (Tm shift, normalised), % at 9.99 µM. 340,000 tested, 1.5% active. Q9HCT0. recombinant FGF22 thermal shift, SYPRO orange fluorescence; percent of sucrose octasulfate shift, DMSO zero. AID 651658;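 active = mean Tm shift, scaled 0 neutral to 100 positive control, at about 1.3% or above, every replicate too, limit read from the data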
Yeast UUG start-2: yeast start codon fidelity modulation; shares compounds with Yeast UUG start-1; 540 tested, under 10 active; activation, % at 38 µM; S. cerevisiae UUG-start firefly luciferase, luminescence, 4 h; 100% means double the DMSO signal;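 active = signal increase whose fitted curve reaches an absolute level of 40 at a concentration under 10 µM; inactive = activity opposite to the expected increase, or the rest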
Active calls of the source: *; i = inactive; . = no result given. This is a sample that favours compounds with a hit; in the whole collection about 1.9% have one here.

[1] N#Cc1ccccc1CN1C(=O)NC(Cc2c[nH]c3ccccc23)C1=O (centres undefined)
[2] O=C1NC(Cc2c[nH]c3ccccc23)C(=O)N1Cc1ccccc1 (centres undefined)
[3] CC(C)C[C@@H](CNCC(=O)[C@H](C)NC(=O)c1[nH]cnc1C(=O)N[C@@H](C)CN)NC(=O)c1nc[nH]c1C(=O)N[C@@H](C)C(=O)O
[4] CC(C)C[C@@H](CNCC(=O)[C@H](Cc1ccccc1)NC(=O)c1[nH]cnc1C(=O)N[C@@H](C)CN)NC(=O)c1nc[nH]c1C(=O)N[C@@H](C)C(=O)O
[5] C[C@@H]1CN([C@@H](C)CO)C(=O)Cc2cc(NC(=O)C3CC3)ccc2O[C@H]1CN(C)Cc1ccc(C(=O)Nc2ccccc2N)cc1
[6] Cc1nc(N2CCN(S(=O)(=O)c3ccccc3C#N)CC2)c2c(-c3ccccc3)csc2n1
Compound,1,2,3,4,5,6
ERp5 inh,2.9,0.8,1.9,0.3,0.2,1.0
PDI inh,-3.5,3.0,3.4,-2.5,.,-0.4
PglD inh,-2.3,-3.1,-2.9,-0.2,-1.9,-3.8
Yeast UUG start-1,588.2*,-11.6,147.4*,130.2*,-9.3,141.0*
FGF22 binding,0.3,-0.1,-0.3,0.0,0.0,0.0
ARNT TACC3 PPI,32.6,-0.7,13.8,-0.5,4.5,1.3
Yeast UUG start-2,9.8,.,0.7,2.7,.,-1.6

[7] COc1ccc(C/C(C)=N/NC(=O)c2ccc(C)cc2C)cc1
[8] N#Cc1ccccc1OCc1cn(CC(=O)c2ccc(O)cc2)nn1
[9] COCC(=O)Nc1ccc2c(c1)OC[C@@H](C)N(C(=O)CC1CC1)C[C@@H](C)[C@H](OC)CN(C)C2=O
[10] O=C(CNC(=O)c1cc(=O)[nH]c2ccc(S(=O)(=O)N3CCOCC3)cc12)Nc1ccc(F)c(F)c1
[11] COCC(C)n1c(SCC(=O)c2cc(C)n(C)c2C)nc2ccccc2c1=O (centres undefined)
[12] Cc1cc(C(=O)CSc2nnc(-c3ccncc3)n2-c2ccccc2)c(C)n1C
Compound,7,8,9,10,11,12
ERp5 inh,-3.4,-9.5,-4.6,4.5,4.7,.
PDI inh,22.7,3.3,.,8.8,-4.8,2.4
PglD inh,-2.7,2.3,-3.0,.,13.3,.
Yeast UUG start-1,538.7*,152.5*,.,107.8*,1.2,.
FGF22 binding,44.0*,-0.1,0.0,-0.1,-0.3,.
ARNT TACC3 PPI,.,2.7,-0.6,.,-1.0,3.9
Yeast UUG start-2,-2.8,10.6,.,11.9,-1.2,6.9

Retrieved by structure from above:
[6] Cc1nc(N2CCN(S(=O)(=O)c3ccccc3C#N)CC2)c2c(-c3ccccc3)csc2n1
[11] COCC(C)n1c(SCC(=O)c2cc(C)n(C)c2C)nc2ccccc2c1=O (centres undefined)
Compound,6,11
ERp5 inh,1.0,4.7
PDI inh,-0.4,-4.8
PglD inh,-3.8,13.3
Yeast UUG start-1,141.0*,1.2
FGF22 binding,0.0,-0.3
ARNT TACC3 PPI,1.3,-1.0
Yeast UUG start-2,-1.6,-1.2

(further entries)
[13] Cc1cc(C(=O)CSc2nnc(-c3ccccc3)n2C)c(C)n1C
[14] Cc1cc(C(=O)CSc2nnc(-c3cccnc3)n2-c2ccccc2F)c(C)n1C
[15] COCC(C)n1c(C)cc(C(=O)CSc2nc3ccccc3c(=O)[nH]2)c1C (centres undefined)
[16] C[C@@H]1CN([C@H](C)CO)C(=O)CCCn2nncc2CO[C@@H]1CN(C)Cc1ccc2c(c1)OCO2
[17] CC(C)NC(=O)N(C)C[C@@H]1Oc2ccc(NC(=O)CCC(F)(F)F)cc2CC(=O)N([C@H](C)CO)C[C@@H]1C
[18] C[C@H](O)C#Cc1cnc2c(c1)C(=O)N([C@H](C)CO)C[C@H](C)[C@@H](CN(C)C(=O)c1ccccc1)O2
Compound,13,14,15,16,17,18
ERp5 inh,.,.,.,9.6,-3.4,-2.7
PDI inh,-1.2,-0.4,-9.9,.,.,.
PglD inh,-1.6,.,2.0,-1.3,-3.0,0.0
Yeast UUG start-1,-8.3,-4.9,-6.0,-8.3,3.9,9.4
FGF22 binding,.,.,.,0.6,-0.2,-0.3
ARNT TACC3 PPI,-2.2,0.9,-1.9,8.9,8.7,2.8
Yeast UUG start-2,-7.3,8.6,.,.,.,.

[19] CCCn1c(C)cc(C(=O)CSc2nc3ccccc3c(=O)n2Cc2ccco2)c1C
[20] Cc1cc(C(=O)CSc2nnc3ccccn23)c(C)n1-c1ccccc1
[21] Cc1cc(C(=O)CSc2nnc(-c3ccccc3)n2-c2ccccc2)c(C)n1-c1ncn[nH]1
[22] NC(=O)CSc1nc2ccccc2c(=O)n1Cc1ccco1
[23] O=C1O[C@@H](c2ccccc2)[C@@H](c2ccccc2)N2[C@@H](c3ccc(O)cc3)[C@]3(C(=O)Nc4ccc(C#CC5(O)CCCCCC5)cc43)[C@@H](C(=O)N3CCN(c4ncccn4)CC3)[C@H]12
[24] COc1ccccc1NC(=O)c1ccc(NS(=O)(=O)c2c(C)noc2C)cc1
Compound,19,20,21,22,23,24
ERp5 inh,0.8,.,.,.,-3.5,.
PDI inh,-3.7,3.9,-2.5,29.3,.,-4.7
PglD inh,-14.3,.,-2.4,-4.1,1.0,-5.8
Yeast UUG start-1,-20.6,.,653.4*,-12.8,-12.5,441.9*
FGF22 binding,0.0,.,.,.,0.0,.
ARNT TACC3 PPI,-9.1,-3.0,6.2,1.9,-3.3,2.7
Yeast UUG start-2,15.2,.,11.2,.,.,-4.0

[25] COc1ccc(NC(=O)c2ccc(NS(=O)(=O)c3c(C)noc3C)cc2)cc1OC
[26] CN(C)c1ccc(C=NCCC2(O)CCOC(C)(C)C2)cc1 (centres undefined)
[27] COc1ccccc1C1(CCN=Cc2ccc(N(C)C)cc2)CCOC(C)(C)C1 (centres undefined)
[28] Cc1ccc(S(=O)(=O)Nc2ccc3c(c2)C(=O)N([C@@H](C)CO)C[C@@H](C)[C@H](CN(C)C(=O)C2CCCCC2)OCCCC[C@@H](C)O3)cc1
[29] COc1ccccc1NC(=O)N[C@H]1C=C[C@@H](CC(=O)N2CCC(Cc3ccccc3)CC2)O[C@H]1CO
[30] O=C(CN1c2ccccc2Sc2ccccc21)N/N=C/c1ccc(Cl)cc1
Compound,25,26,27,28,29,30
ERp5 inh,.,.,-0.4,0.6,2.1,2.0
PDI inh,2.5,-4.0,-2.1,.,.,-17.2
PglD inh,7.9,-2.9,6.9,-3.7,1.4,9.9
Yeast UUG start-1,1.3,117.5*,14.6,24.4,18.2,180.3*
FGF22 binding,.,.,0.3,.,-0.3,-0.2
ARNT TACC3 PPI,-4.8,-1.4,1.9,-6.3,-5.7,-1.1
Yeast UUG start-2,.,-2.1,.,.,.,-6.7

An excerpt from above in order of their number in ARNT TACC3 PPI, highest first:
| cpd | smiles | ARNT TACC3 PPI |
| --- | --- | --- |
| 25 | COc1ccc(NC(=O)c2ccc(NS(=O)(=O)c3c(C)noc3C)cc2)cc1OC | -4.8 |
| 29 | COc1ccccc1NC(=O)N[C@H]1C=C[C@@H](CC(=O)N2CCC(Cc3ccccc3)CC2)O[C@H]1CO | -5.7 |
| 28 | Cc1ccc(S(=O)(=O)Nc2ccc3c(c2)C(=O)N([C@@H](C)CO)C[C@@H](C)[C@H](CN(C)C(=O)C2CCCCC2)OCCCC[C@@H](C)O3)cc1 | -6.3 |

(next part)
[31] O=C(NCC1CCCCC1)[C@@H]1[C@@H](CO)[C@@H]2Cn3c(cccc3=O)[C@@H]2N1C(=O)CC1CC1
[32] O=C(O)C[C@@H]1C[C@H]2c3cc(NC(=O)c4ccc5c(c4)OCO5)ccc3O[C@H]2[C@@H](CO)O1
[33] O=C(Nc1ccc2c(c1)[C@@H]1C[C@@H](CC(=O)N3CCc4ccccc4C3)O[C@@H](CO)[C@@H]1O2)Nc1ccccc1F
[34] O=C(O)C[C@H]1C[C@H]2c3cc(NC(=O)c4ccc5c(c4)OCO5)ccc3O[C@H]2[C@@H](CO)O1
[35] O=C(C[C@@H]1C[C@H]2c3cc(NC(=O)NC4CCCCC4)ccc3O[C@H]2[C@H](CO)O1)NCc1ccccn1
[36] COc1ccc(NC(=O)Nc2ccc3c(c2)[C@@H]2C[C@@H](CC(=O)NCC4CC4)O[C@@H](CO)[C@@H]2O3)cc1
[37] O=C(Nc1ccc(C(F)(F)F)cc1)Nc1ccc2c(c1)[C@H]1C[C@H](CC(=O)N3CCc4ccccc4C3)O[C@@H](CO)[C@H]1O2
[38] COc1ccccc1CNC(=O)C[C@@H]1C=C[C@H](NC(=O)CC2CC2)[C@@H](CO)O1
Compound,31,32,33,34,35,36,37,38
ERp5 inh,-5.9,-6.2,-0.8,-4.9,4.4,12.4,2.6,-5.5
PDI inh,.,.,.,.,.,.,.,.
PglD inh,1.4,-0.8,-1.8,0.5,-0.4,1.2,-0.1,-2.7
Yeast UUG start-1,.,-16.7,61.2*,38.5*,75.0*,57.0*,.,2.3
FGF22 binding,0.1,-0.1,0.1,-0.1,0.5,-0.3,0.7,0.2
ARNT TACC3 PPI,-3.4,4.5,-19.6,5.0,-45.6,-3.8,-3.1,-5.9
Yeast UUG start-2,.,.,i,i,i,i,.,.

Source: PubChem (Broad Institute)
